{
  "source": "patent EP1914230B1",
  "about": "(The Arizona Board of Regents on behalf of the University of …, priority 2001, dated 2003)",
  "test_system": "C57BL6 mice",
  "conditions": "percent decrease in lymphocyte counts at the MTD or highest dose tested, relative to wortmannin as 1.0",
  "data": [
    {"smiles": "COC[C@H]1OC(=O)C(=CN(C)Cc2ccccc2)C2=C(O)C(=O)C3=C([C@H](OC(C)=O)C[C@]4(C)C(=O)CC[C@@H]34)[C@]21C", "note": "[DJM2-181, Acetic acid 4-[(benzylmethylamino)methylene]-6-hydroxy-1α-methoxymethyl-10β,13β-dimethyl-3,7,17-trioxo-1,3,4,7,10,11β,12,13,14α,15,16,17-dodecahydro-2-oxa-cyclopenta[a]phenanthren-11-yl ester]", "values": [
      {"measurement": "Lymphocyte toxicity relative to wortmannin", "result": 1.9}
    ]}
  ]
}
